Measurements reported in ChEMBL document CHEMBL2021856 (ACS Med Chem Lett, 2011).

Protein sequences, listed by entry. Tags and fused reporters are not part of them. Lines headed by an entry give the natural chain unless they say otherwise; changes in a name come on top.
UniProt P28223, whole entry: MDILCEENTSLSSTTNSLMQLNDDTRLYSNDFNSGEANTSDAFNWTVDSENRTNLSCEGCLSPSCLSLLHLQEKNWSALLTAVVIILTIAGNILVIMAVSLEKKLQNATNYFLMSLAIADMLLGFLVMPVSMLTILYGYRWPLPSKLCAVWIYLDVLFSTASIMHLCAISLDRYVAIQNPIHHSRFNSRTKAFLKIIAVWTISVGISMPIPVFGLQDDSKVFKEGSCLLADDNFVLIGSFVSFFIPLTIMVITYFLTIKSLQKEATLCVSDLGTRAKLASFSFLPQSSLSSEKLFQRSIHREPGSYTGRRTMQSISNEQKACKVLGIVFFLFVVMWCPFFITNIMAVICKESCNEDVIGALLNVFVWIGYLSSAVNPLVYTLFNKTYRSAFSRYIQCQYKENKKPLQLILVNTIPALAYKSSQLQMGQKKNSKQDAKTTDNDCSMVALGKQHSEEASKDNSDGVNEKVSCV
UniProt P41595, whole entry: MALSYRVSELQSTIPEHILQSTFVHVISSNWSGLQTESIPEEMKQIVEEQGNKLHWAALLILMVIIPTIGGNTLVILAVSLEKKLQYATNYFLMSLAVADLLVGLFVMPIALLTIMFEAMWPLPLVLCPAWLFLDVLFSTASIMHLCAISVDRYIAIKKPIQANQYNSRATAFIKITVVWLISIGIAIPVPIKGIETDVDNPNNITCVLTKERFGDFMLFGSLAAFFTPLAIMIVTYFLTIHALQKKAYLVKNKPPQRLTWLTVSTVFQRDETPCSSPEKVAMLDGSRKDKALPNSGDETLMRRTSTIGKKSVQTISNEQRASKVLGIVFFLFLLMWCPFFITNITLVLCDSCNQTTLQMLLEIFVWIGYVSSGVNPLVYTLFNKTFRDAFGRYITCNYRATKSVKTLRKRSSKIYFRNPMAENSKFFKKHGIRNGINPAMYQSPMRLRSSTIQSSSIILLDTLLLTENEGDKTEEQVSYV
UniProt P28335: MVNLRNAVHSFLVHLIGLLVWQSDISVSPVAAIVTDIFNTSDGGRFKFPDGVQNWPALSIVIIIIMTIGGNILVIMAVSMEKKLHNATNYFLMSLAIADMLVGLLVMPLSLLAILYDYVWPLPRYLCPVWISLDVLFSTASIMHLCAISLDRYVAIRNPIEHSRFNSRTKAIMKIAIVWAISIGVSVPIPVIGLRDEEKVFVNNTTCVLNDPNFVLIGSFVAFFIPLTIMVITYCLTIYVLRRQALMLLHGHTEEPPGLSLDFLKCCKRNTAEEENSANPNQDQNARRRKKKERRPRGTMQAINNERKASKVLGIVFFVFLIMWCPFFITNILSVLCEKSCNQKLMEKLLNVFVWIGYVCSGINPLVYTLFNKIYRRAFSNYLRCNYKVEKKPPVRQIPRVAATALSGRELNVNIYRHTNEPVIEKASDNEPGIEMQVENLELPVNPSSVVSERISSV

What was measured:
Type in all cases: functional, cell-based
[1] = target: 5-hydroxytryptamine receptor 2A (Homo sapiens, UniProt P28223); assay: Agonist activity at human 5HT2A receptor expressed in HEK293 cells assessed as calcium flux measured every sec for 3 mins by FLIPR assay relative to 5HT
Outline: (§1)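 Calcium flux (Gαq-mediated) in HEK-293 cells stably expressing human 5-HT2A, 5-HT2B or 5-HT2C (INI isoform). […] Racemic trans mixtures were tested unless otherwise stated.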

[2] = target: 5-hydroxytryptamine receptor 2B (Homo sapiens, UniProt P41595); assay: Agonist activity at human 5HT2B receptor expressed in HEK293 cells assessed as calcium flux measured every sec for 3 mins by FLIPR assay relative to 5HT; outline: as §1
[3] = target: 5-hydroxytryptamine receptor 2C (Homo sapiens, UniProt P28335); assay: Agonist activity at human 5HT2C receptor expressed in HEK293 cells assessed as calcium flux measured every sec for 3 mins by FLIPR assay relative to 5HT; outline: as §1

Structure (SMILES) | Emax [1] [%] | Emax [2] [%] | Emax [3] [%]
NC[C@H]1C[C@@H]1c1ccccc1OCC1CC1 | 1 | 1 | 
COc1ccc(-c2cccc(C)c2)cc1[C@H]1C[C@@H]1CN.Cl (racemic) | 16 | 1 | 
COc1ccc(-c2cccc(F)c2)cc1[C@H]1C[C@@H]1CN.Cl (racemic) | 18 | 2 | 
Cc1ccc(OCC(C)C)c([C@H]2C[C@@H]2CN)c1.Cl (racemic) | 3 | 2 | 24
COc1ccc(-c2ccccc2)cc1[C@H]1C[C@@H]1CN.Cl (racemic) | 18 | 2 | 
Cl.NC[C@@H]1C[C@H]1c1ccccc1OCC1CC1 | 0 | 4 | 
CCCOc1ccccc1[C@H]1C[C@@H]1CN.Cl (racemic) | 1 |  | 
CCCCc1ccc(-c2ccc(OC)c([C@H]3C[C@@H]3CN)c2)cc1.Cl (racemic) | 15 | 1 | 22
CCCCCOc1ccccc1[C@H]1C[C@@H]1CN.Cl (racemic) | 7 | 3 | 6
CC(C)COc1ccccc1[C@H]1C[C@@H]1CN.Cl (racemic) | 1 | 0 | 
COc1ccc(-c2ccccc2F)cc1[C@H]1C[C@@H]1CN.Cl (racemic) | 21 | 1 | 
Cl.NC[C@H]1C[C@@H]1c1ccccc1OCc1ccccc1 (racemic) | 0 |  | 
Cl.NC[C@H]1C[C@@H]1c1ccccc1OCC1CCCCC1 (racemic) | 0 | 1 | 1
COc1ccc(-c2ccc(F)cc2)cc1[C@H]1C[C@@H]1CN.Cl (racemic) | 20 | 8 | 
COc1ccc(-c2ccccc2C)cc1[C@H]1C[C@@H]1CN.Cl (racemic) | 23 | 2 | 
COc1ccc(-c2ccc(C)cc2)cc1[C@H]1C[C@@H]1CN.Cl (racemic) | 20 | 1 | 19
NC[C@H]1C[C@@H]1c1ccccc1OCC1CC1 (racemic) | 0 | 2 | 
Cl.NC[C@H]1C[C@@H]1c1ccccc1OCC1CCC1 (racemic) | 1 | 3 | 
